Target: h5HT7A receptor (Homo sapiens, UniProt P34969)
Assay: [3H]5-HT binding at 5HT7A receptors
Settings: read-out: Kd of radioligand at 5HT7A receptors used in Cheng-Prusoff equation

The chains behind the UniProt entries cited, without tags or fusion partners. Residues count along the entry.
UniProt P34969, 1-445 isoform P34969-2: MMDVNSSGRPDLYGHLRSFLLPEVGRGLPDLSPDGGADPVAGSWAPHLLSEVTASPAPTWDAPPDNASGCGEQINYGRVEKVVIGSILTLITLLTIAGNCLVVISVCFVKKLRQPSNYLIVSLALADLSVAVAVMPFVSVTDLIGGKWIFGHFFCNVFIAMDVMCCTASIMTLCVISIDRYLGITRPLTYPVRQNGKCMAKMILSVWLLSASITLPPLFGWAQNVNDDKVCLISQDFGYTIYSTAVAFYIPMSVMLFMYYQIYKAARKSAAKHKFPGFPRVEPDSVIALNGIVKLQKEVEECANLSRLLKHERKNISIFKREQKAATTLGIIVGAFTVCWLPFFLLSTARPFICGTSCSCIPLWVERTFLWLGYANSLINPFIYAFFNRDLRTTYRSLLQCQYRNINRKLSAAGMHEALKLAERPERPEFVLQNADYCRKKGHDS

Kd: 0.347 nM
Substance: [^3H]5HT

From paper PMC10285950 (ACS Omega, 2023)
